The values that follow are results of earlier work, collected in patent EP3654984B1, “TOPICAL TREATMENT FOR PREVENTING AND MITIGATING SKIN CYTOTOXICITY DUE TO THERAPY WITH TYROSINE KINASE INHIBITORS” (EUCARE S.R.L., priority 2017, dated 2019).

Marks after values point to notes of the source that are not given here.

The data set deals with patients with EGFR mutation-positive non-small-cell lung cancer. The settings on record: LUX-Lung 7, cited from earlier work.
Setting [1] is: AST, aspartate aminotransferase.
The mark [2] stands for this setting: afatinib 40 mg/day or gefitinib 250 mg/day.
The mark [3] stands for this setting: of the 160 (afatinib) / 159 (gefitinib) patients treated.
Where [4] appears, read: term used for a group of adverse events.

As for `COc1cc2ncnc(Nc3ccc(F)c(Cl)c3)c2cc1OCCCN1CCOCC1` [Gefitinib, gefitinib], the “Alopecia, All” value is recorded as 15.1%; the “Itching, All” value is 22.6%; the “Nausea, All” value is reported as 13.8%; the “Reduction of appetite, All” value is on record as 11.9%. The “Vomiting, All” value is listed as 3.8%; the “Vomiting, Grade 3” value was 0.6%; the “Xerosis, All” value is reported as 37.1%; the “grade 3 or 4 diarrhea” value is given as 1%. Besides, the “grade 3 or 4 rash or acne” value is 3%. Also, under “ALT, alanine aminotransferase”, the “ALT increased, All” value is reported as 23.9% and the “ALT increased, Grade 3” value is 7.5‡ %. Further, under setting [1], the “AST increased, All” value is 20.8% and the “AST increased, Grade 3” value was 2.5%. Also, under setting [2], the “Diarrhea, All” value is 61.0% and the “Diarrhea, Grade 3” value is 1.3%. Moreover, under setting [3], the “grade 3 or 4 diarrhea, number of patients” value was 2 patients and the “grade 3 or 4 rash or acne, number of patients” value is 5 patients. Further, under setting [4], the “Asthenia*, All” value is given as 14.5%; the “Paronychia*, All” value is 17.0%; the “Paronychia*, Grade 3” value is 0.6%; the “Rash/acne*, All” value is recorded as 81.1%. Moreover, under setting [4], the “Rash/acne*, Grade 3” value is given as 3.1% and the “Stomatitis*, All” value is 23.9%.
